Values of other authors in patent US11191803B2, “Laminin receptor peptides for therapy” (priority 2017, dated 2021).

Tested on: ALS/MND patients
Conditions: cited from earlier work

For Nc1nc2ccc(OC(F)(F)F)cc2s1 [Riluzole], the Survival advantage is given as 2-3 months.
